Source: US11685747B2, “Compounds that inhibit MCL-1 protein” (AMGEN INC., priority 2014, dated 2023)

By UniProt entry, the sequences of proteins in these tests, tags left out. Residues count along the entry.
UniProt Q07820, whole entry: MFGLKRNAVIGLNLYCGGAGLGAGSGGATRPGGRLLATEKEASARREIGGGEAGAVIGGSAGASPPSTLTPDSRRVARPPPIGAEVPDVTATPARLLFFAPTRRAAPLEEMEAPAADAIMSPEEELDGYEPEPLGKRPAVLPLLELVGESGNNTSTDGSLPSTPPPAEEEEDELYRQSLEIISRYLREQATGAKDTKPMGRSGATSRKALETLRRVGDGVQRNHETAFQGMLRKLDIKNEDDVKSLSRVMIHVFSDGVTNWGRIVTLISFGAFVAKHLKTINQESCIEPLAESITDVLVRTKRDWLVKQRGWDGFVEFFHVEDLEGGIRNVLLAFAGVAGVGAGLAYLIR
UniProt Q07820, 171-327 limits assumed: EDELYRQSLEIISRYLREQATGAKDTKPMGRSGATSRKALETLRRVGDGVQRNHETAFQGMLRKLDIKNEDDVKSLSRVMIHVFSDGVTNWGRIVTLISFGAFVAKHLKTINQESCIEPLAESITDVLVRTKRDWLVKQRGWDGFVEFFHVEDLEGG

Legend:
recombinant human Mcl-1 = recombinant human Mcl-1 (Homo sapiens, UniProt Q07820); assay: Cell free Mcl-1:Bim affinity assay (Mcl-1 HTRF, TR-FRET); type: binding; conditions: read-out: Mcl-1 HTRF, inhibition of Mcl-1/Bim interaction
[1] = target: Mcl-1/Bak protein-protein interactions (Homo sapiens, UniProt Q07820); assay: Cell-based split luciferase complementation assay; conditions: read-out: Split Luciferase; HEK 293 M cells, serum-free, 4 h
OPM-2 = assay: Cell viability assay (OPM-2 10 FBS, CellTiter-Glo); type: cell-based, human; conditions: read-out: OPM-2 10% FBS, OPM-2 cells, 16 h

Question: What does the source list for `CCCCC1C(C)C/C=C/[C@H](O)[C@@H]2CC[C@H]2CN2C[C@@]3(CCCc4cc(Cl)ccc43)COc3ccc(cc32)C(=O)NS1(=O)=O` (stereo partly drawn)?
Answer: IC50 (recombinant human Mcl-1): 5.42 nM; IC50 [1]: 354 nM; IC50 (OPM-2): 2220 nM

Question: For `CO[C@H]1/C=C/CC(C)C(CC2CC2)S(=O)(=O)NC(=O)c2ccc3c(c2)N(C[C@@H]2CC[C@H]21)C[C@@]1(CCCc2cc(Cl)ccc21)CO3` (stereo partly drawn), which IC50 (recombinant human Mcl-1) is on record?
Answer: 10.3 nM

Question: What about the IC50 [1] of the same compound?
Answer: 166 nM

Question: What about the IC50 (OPM-2) of the same compound?
Answer: 6700 nM

Question: `CCCCC1C(C)C/C=C\[C@H](O)[C@@H]2CC[C@H]2CN2C[C@@]3(CCCc4cc(Cl)ccc43)COc3ccc(cc32)C(=O)NS1(=O)=O` (single isomer, unassigned) was tested. Which IC50 (recombinant human Mcl-1) did it give?
Answer: 2.71 nM

Question: What about the IC50 [1] of the same compound?
Answer: 169 nM

Question: What about the IC50 (OPM-2) of the same compound?
Answer: 1560 nM

Question: How did the IC50 (recombinant human Mcl-1) turn out when `CO[C@H]1/C=C/CC(C)CS(=O)(=O)NC(=O)c2ccc3c(c2)N(C[C@@H]2CC[C@H]21)C[C@@]1(CCCc2cc(Cl)ccc21)CO3` (single isomer, unassigned) was run?
Answer: 0.81 nM

Question: And the IC50 [1]?
Answer: 49.5 nM

Question: And the IC50 (OPM-2)?
Answer: 242 nM
